Assay results as given in US11618753B2 (priority 2018, dated 2023).
Counter-ions that a name gives are not always drawn.

The chains behind the UniProt entries cited, without tags or fusion partners. Where a name states a change or a piece, a line headed by the entry shows the natural chain unless it says otherwise.
UniProt O00329: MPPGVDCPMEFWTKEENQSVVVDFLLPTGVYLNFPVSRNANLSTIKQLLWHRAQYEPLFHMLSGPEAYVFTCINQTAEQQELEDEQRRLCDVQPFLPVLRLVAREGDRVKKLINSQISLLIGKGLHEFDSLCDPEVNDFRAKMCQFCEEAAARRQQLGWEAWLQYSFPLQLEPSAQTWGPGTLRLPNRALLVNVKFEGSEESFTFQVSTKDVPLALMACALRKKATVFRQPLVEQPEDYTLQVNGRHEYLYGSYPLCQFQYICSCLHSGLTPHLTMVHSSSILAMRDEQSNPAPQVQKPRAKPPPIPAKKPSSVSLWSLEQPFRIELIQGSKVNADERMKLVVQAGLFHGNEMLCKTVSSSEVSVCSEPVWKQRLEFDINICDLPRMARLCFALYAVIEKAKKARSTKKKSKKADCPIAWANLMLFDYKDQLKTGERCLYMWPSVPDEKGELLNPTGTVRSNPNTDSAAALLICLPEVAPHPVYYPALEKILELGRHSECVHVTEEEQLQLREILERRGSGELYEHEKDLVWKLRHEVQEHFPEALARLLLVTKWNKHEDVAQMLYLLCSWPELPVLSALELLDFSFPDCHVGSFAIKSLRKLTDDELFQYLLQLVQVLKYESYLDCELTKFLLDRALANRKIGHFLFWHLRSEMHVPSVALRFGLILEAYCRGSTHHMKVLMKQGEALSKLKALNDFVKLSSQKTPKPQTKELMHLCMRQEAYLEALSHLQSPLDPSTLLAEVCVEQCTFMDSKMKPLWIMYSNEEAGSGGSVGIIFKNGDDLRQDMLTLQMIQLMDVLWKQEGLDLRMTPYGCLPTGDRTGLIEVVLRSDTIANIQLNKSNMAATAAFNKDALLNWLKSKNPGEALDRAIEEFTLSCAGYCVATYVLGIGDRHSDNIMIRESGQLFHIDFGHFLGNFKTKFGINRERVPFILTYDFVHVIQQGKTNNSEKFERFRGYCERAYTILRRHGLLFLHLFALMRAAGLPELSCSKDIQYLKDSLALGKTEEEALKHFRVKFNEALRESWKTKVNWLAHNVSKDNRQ

Biological target: GST-tagged PIK3Cδ in complex with PIK3R1 (Homo sapiens (Human), UniProt O00329)
Test: biochemical

Row | SMILES | IC50 [µM]
1 | CC(CCNC(=O)c1cc(-c2cc(C(F)(F)F)c3c(N)ncnn23)ccc1F)c1ccccc1 (centres unmarked) [Example 243, 5-[4-amino-5-(trifluoromethyl)pyrrolo[2,1-f][1,2,4]triazin-7-yl]-2-fluoro-N-(3-phenylbutyl)benzamide] | > 1.5
2 | Nc1ncnn2c(-c3ccc(F)c(C(=O)NCC[C@@H](O)c4ccc(Cl)cc4)c3)cc(C(F)(F)F)c12 [Example 246, 5-[4-amino-5-(trifluoromethyl)pyrrolo[2,1-f][1,2,4]triazin-7-yl]-N-[(3R)-3-(4-chlorophenyl)-3-hydroxypropyl]-2-fluorobenzamide] | 0.237
3 | Nc1ncnn2c(-c3ccc(F)c(C(=O)NCC[C@H](O)c4ccc(Cl)cc4)c3)cc(C(F)(F)F)c12 [Example 248, 5-[4-amino-5-(trifluoromethyl)pyrrolo[2,1-f][1,2,4]triazin-7-yl]-N-[(3S)-3-(4-chlorophenyl)-3-hydroxypropyl]-2-fluorobenzamide] | > 1.5
4 | Nc1ncnn2c(-c3ccc(F)c(C(=O)NCC4CCCOC4c4ccccc4)c3)cc(C(F)(F)F)c12 (centres unmarked) [Example 250, 5-[4-amino-5-(trifluoromethyl)pyrrolo[2,1-f][1,2,4]triazin-7-yl]-2-fluoro-N-[(2-phenyloxan-3-yl)methyl]benzamide] | 0.514
5 | Nc1ncnn2c(-c3cnc(F)c(C(=O)NCC[C@@H](O)c4ccc(Cl)cc4)c3)cc(C(F)(F)F)c12 [Example 269, 5-[4-amino-5-(trifluoromethyl)pyrrolo[2,1-f][1,2,4]triazin-7-yl]-N-[(3R)-3-(4-chlorophenyl)-3-hydroxypropyl]-2-fluoropyridine-3-carboxamide] | 0.434
6 | Nc1ncnn2c(-c3cnc(F)c(C(=O)Nc4cnn(Cc5ccccc5)c4)c3)cc(C(F)(F)F)c12 [Example 270, 5-[4-amino-5-(trifluoromethyl)pyrrolo[2,1-f][1,2,4]triazin-7-yl]-N-(1-benzyl-1H-pyrazol-4-yl)-2-fluoropyridine-3-carboxamide] | > 1.5
7 | CC(CCNC(=O)c1cc(-c2cc(C(F)(F)F)c3c(N)ncnn23)cnc1F)c1ccccc1 (centres unmarked) [Example 271, 5-[4-amino-5-(trifluoromethyl)pyrrolo[2,1-f][1,2,4]triazin-7-yl]-2-fluoro-N-(3-phenylbutyl)pyridine-3-carboxamide] | > 1.5
8 | Nc1ncnn2c(-c3cnc(F)c(C(=O)NCCC(O)c4ccc(F)cc4)c3)cc(C(F)(F)F)c12 (centres unmarked) [Example 272, 5-[4-amino-5-(trifluoromethyl)pyrrolo[2,1-f][1,2,4]triazin-7-yl]-2-fluoro-N-[3-(4-fluorophenyl)-3-hydroxypropyl] pyridine-3-carboxamide] | 0.285
9 | Nc1ncnn2c(-c3cncc(C(=O)Nc4cnn(Cc5ccccc5)c4)c3)cc(C(F)(F)F)c12 [Example 276, 5-[4-amino-5-(trifluoromethyl)pyrrolo[2,1-f][1,2,4]triazin-7-yl]-N-(1-benzyl-1H-pyrazol-4-yl)pyridine-3-carboxamide] | 0.693
10 | [2H]C([2H])([2H])Oc1ncc(-c2cc(C(F)(F)F)c3c(N)ncnn23)cc1C(=O)N[C@@H]1CN(C(=O)[C@@](C)(O)C(F)(F)F)C[C@@H]1F [Example 386, 5-[4-amino-5-(trifluoromethyl)pyrrolo [2,1-f][1,2,4]triazin-7-yl]-N-[(3R,4S)-4-fluoro-1-[(2R)-3,3,3-trifluoro-2-hydroxy-2-methylpropanoyl]pyrrolidin-3-yl]-2-(deutero)methoxy-pyridine-3-carboxamide] | 0.367
11 | C[C@@](O)(C(=O)N1C[C@H](F)[C@H](NC(=O)c2ccc(F)c(-c3cc(C(F)(F)F)c4c(N)ncnn34)c2)C1)C(F)(F)F [Example 426, 3-[4-amino-5-(trifluoromethyl)pyrrolo[2,1-f][1,2,4]triazin-7-yl]-4-fluoro-N-[(3R,4S)-4-fluoro-1-[(2R)-3,3,3-trifluoro-2-hydroxy-2-methylpropanoyl]pyrrolidin-3-yl] benzamide, TFA] | 1.18
12 | COc1ncc(-c2cc(CN3CCOCC3)c3c(N)ncnn23)cc1C(=O)N[C@@H]1CN(CC(O)C(F)(F)F)C[C@@H]1F (stereo partly drawn) [Example 481, 5-{4-amino-5-[(morpholin-4-yl)methyl]pyrrolo[2,1-f][1,2,4]triazin-7-yl}-N-[(3R,4S)-4-fluoro-1-(3,3,3-trifluoro-2-hydroxypropyl)pyrrolidin-3-yl]-2-methoxypyridine-3-carboxamide] | 15
13 | COc1ncc(-c2cc(CN3CCOCC3)c3c(N)ncnn23)cc1C(=O)N[C@@H]1CN(C(=O)C2CC(F)(F)C2)C[C@@H]1F [Example 487, 5-{4-amino-5-[(morpholin-4-yl)methyl]pyrrolo[2,1-f][1,2,4]triazin-7-yl}-N-[(3R,4S)-1-(3,3-difluorocyclobutanecarbonyl)-4-fluoropyrrolidin-3-yl]-2-methoxypyridine-3-carboxamide] | > 15
14 | COc1ncc(-c2cc(CN3CC(F)(F)C3)c3c(N)ncnn23)cc1C(=O)N[C@@H]1CN(C(=O)C2CC(F)(F)C2)C[C@@H]1F [Example 489, 5-{4-amino-5-[(3,3-difluoroazetidin-1-yl)methyl]pyrrolo[2,1-f][1,2,4]triazin-7-yl}-N-[(3R,4S)-1-(3,3-difluorocyclobutanecarbonyl)-4-fluoropyrrolidin-3-yl]-2-methoxypyridine-3-carboxamide] | 4.13
15 | COc1ncc(-c2cc(COC(C)C)c3c(N)ncnn23)cc1C(=O)N[C@@H]1CN(C(=O)C2CC(F)(F)C2)C[C@@H]1F [Example 491, 5-{4-amino-5-[(propan-2-yloxy)methyl]pyrrolo[2,1-f][1,2,4]triazin-7-yl}-N-[(3R,4S)-1-(3,3-difluorocyclobutanecarbonyl)-4-fluoropyrrolidin-3-yl]-2-methoxypyridine-3-carboxamide] | 1.94
16 | COc1ncc(-c2cc(C(F)(F)F)c3c(N)ncnn23)cc1C(=O)N[C@@H]1CN(S(=O)(=O)c2ccccc2C#N)C[C@@H]1F [Example 502, 5-[4-amino-5-(trifluoromethyl)pyrrolo[2,1-f][1,2,4]triazin-7-yl]-N-[(3R,4S)-1-(2-cyanobenzenesulfonyl)-4-fluoropyrrolidin-3-yl]-2-methoxypyridine-3-carboxamide] | 3.37
17 | COc1ncc(-c2cc(C(F)(F)F)c3c(N)ncnn23)cc1C(=O)N[C@@H]1CN(S(=O)(=O)c2ccc(F)cc2)C[C@@H]1F [Example 505, 5-[4-amino-5-(trifluoromethyl)pyrrolo[2,1-f][1,2,4]triazin-7-yl]-N-[(3R,4S)-4-fluoro-1-(4-fluorobenzenesulfonyl)pyrrolidin-3-yl]-2-methoxypyridine-3-carboxamide] | > 15
18 | COc1ncc(-c2c(C#N)cc3c(N)ncnn23)cc1C(=O)N[C@@H]1CN(C(=O)C2(C(F)(F)F)CC2)C[C@@H]1F [Example 554, 5-(4-amino-6-cyanopyrrolo[2,1-f][1,2,4]triazin-7-yl)-N-((3R,4S)-4-fluoro-1-(1-(trifluoromethyl)cyclopropane-1-carbonyl)pyrrolidin-3-yl)-2-methoxynicotinamide] | > 15
19 | Cc1c(F)cc(-c2cc(C(F)(F)F)c3c(N)ncnn23)cc1C(=O)N[C@@H]1CN(C(=O)[C@@](C)(O)C(F)(F)F)C[C@@H]1F [Example 569, 5-[4-amino-5-(trifluoromethyl)pyrrolo[2,1-f][1,2,4]triazin-7-yl]-3-fluoro-N-[(3R,4S)-4-fluoro-1-[(2R)-3,3,3-trifluoro-2-hydroxy-2-methylpropanoyl]pyrrolidin-3-yl]-2-methylbenzamide] | 0.545
20 | CC(C)CC(=O)N1C[C@H](F)[C@H](NC(=O)c2cc(-c3cc(C(F)(F)F)c4c(N)ncnn34)cc(F)c2CF)C1 [Example 625, 5-[4-amino-5-(trifluoromethyl)pyrrolo[2,1-f][1,2,4]triazin-7-yl]-3-fluoro-N-[(3R,4S)-4-fluoro-1-(3-methylbutanoyl)pyrrolidin-3-yl]-2-(fluoromethyl)benzamide] | 0.1
21 | CCc1c(F)cc(-c2cc(C(F)(F)F)c3c(N)ncnn23)cc1C(=O)N[C@@H]1CN(C(=O)c2ccccc2F)C[C@@H]1F [Example 645, 5-[4-amino-5-(trifluoromethyl)pyrrolo[2,1-f][1,2,4]triazin-7-yl]-2-ethyl-3-fluoro-N-[(3R,4S)-4-fluoro-1-(2-fluorobenzoyl)pyrrolidin-3-yl]benzamide] | 1.32
22 | CCc1c(F)cc(-c2cc(C(F)(F)F)c3c(N)ncnn23)cc1C(=O)N[C@@H]1CN(C(=O)CC(C)C)C[C@@H]1F [Example 646, 5-[4-amino-5-(trifluoromethyl)pyrrolo[2,1-f][1,2,4]triazin-7-yl]-2-ethyl-3-fluoro-N-[(3R,4S)-4-fluoro-1-(3-methylbutanoyl)pyrrolidin-3-yl]benzamide] | 0.617
23 | CCc1c(F)cc(-c2cc(C(F)(F)F)c3c(N)ncnn23)cc1C(=O)N[C@@H]1CN(C(=O)[C@@](C)(O)C(F)(F)F)C[C@@H]1F [Example 650, 5-[4-amino-5-(trifluoromethyl)pyrrolo[2,1-f][1,2,4]triazin-7-yl]-2-ethyl-3-fluoro-N-[(3R,4S)-4-fluoro-1-[(2R)-3,3,3-trifluoro-2-hydroxy-2-methylpropanoyl]pyrrolidin-3-yl]benzamide] | > 15
24 | CCc1c(F)cc(-c2cc(C(F)(F)F)c3c(N)ncnn23)cc1C(=O)N[C@@H]1CN(C(=O)CC(C)C(F)(F)F)C[C@@H]1F (stereo partly drawn) [Example 652, 5-[4-amino-5-(trifluoromethyl)pyrrolo[2,1-f][1,2,4]triazin-7-yl]-2-ethyl-3-fluoro-N-[(3R,4S)-4-fluoro-1-(4,4,4-trifluoro-3-methylbutanoyl)pyrrolidin-3-yl]benzamide] | > 15
25 | CCc1c(F)cc(-c2cc(C(F)(F)F)c3c(N)ncnn23)cc1C(=O)N[C@@H]1CN(C(=O)CC(C)(O)C(F)(F)F)C[C@@H]1F (stereo partly drawn) [Example 653, 5-[4-amino-5-(trifluoromethyl)pyrrolo[2,1-f][1,2,4]triazin-7-yl]-2-ethyl-3-fluoro-N-[(3R,4S)-4-fluoro-1-(4,4,4-trifluoro-3-hydroxy-3-methylbutanoyl)pyrrolidin-3-yl]benzamide] | 1.94
26 | CCc1c(F)cc(-c2cc(C(F)(F)F)c3c(N)ncnn23)cc1C(=O)N[C@@H]1CN(C(=O)C2CC(F)C2)C[C@@H]1F (stereo partly drawn) [Example 656, 5-[4-amino-5-(trifluoromethyl)pyrrolo[2,1-f][1,2,4]triazin-7-yl]-2-ethyl-3-fluoro-N-[(3R,4S)-4-fluoro-1-(3-fluorocyclobutanecarbonyl)pyrrolidin-3-yl]benzamide] | 1.67
